# Antibody variant affinities, Ab-14 light chain, assay B

Source: Li et al. 2023 (doi:10.1038/s41467-023-39022-2), MIT Lincoln Laboratory and A-Alpha Bio; data file from the FLAb repository.

Target: peptide PDVDLGDISGINAS, taken from heptad repeat 2 (HR2) of SARS-CoV-2 spike.

Ab-14 is the parent antibody, in scFv form: VH, then the linker GGGGSGGGGSGGGGS, then VL. The heavy chain is unchanged in all variants.
VH: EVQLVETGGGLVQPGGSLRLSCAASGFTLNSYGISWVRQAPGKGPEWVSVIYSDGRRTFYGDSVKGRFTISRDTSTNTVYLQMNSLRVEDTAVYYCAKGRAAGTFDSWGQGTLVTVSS
VL: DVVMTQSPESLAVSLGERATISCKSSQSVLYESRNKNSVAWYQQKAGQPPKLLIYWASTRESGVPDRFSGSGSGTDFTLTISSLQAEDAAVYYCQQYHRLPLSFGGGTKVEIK

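The starting antibody came from a phage panning campaign against this peptide. These sequences belong to a second round, designed from the earlier measurements on random variants of the parent. Several design methods are mixed in this list. The assay is AlphaSeq: two haploid yeast populations carry antibody and antigen on their surface. Mating (16 h, 30 °C) was followed by selection of diploids and sequencing of their barcodes. Each replicate has its own calibration line, from reference interactions of the BCL2 family. Mating was done six times.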

Sequences are complete VL domains. Values are log10 of the apparent Kd in nM; lower means stronger binding. A mean of the replicates is given; it leaves out those without a signal. "nd" marks a missing value. The strain was present, yet no cells mated with the target were sequenced in any replicate, which points to weak or no binding. Order: sorted from the lowest average up, undetected variants last. The range of this assay differs from that of the first round, and the authors advise against merging the two. The parent sequence was in this pool as ten entries: three were never detected, three once, and four in most replicates, with averages from 0.34 to 2.37. In the paper, a design with two or fewer of six values counts as a poor binder. Empty control strains, which show no peptide, gave a signal in 4% of pairings with all light chain designs; the median was 2.64 and 95% of these signals were weaker than 1.59. No background was subtracted.

VL | mean log10 Kd (nM) | detected
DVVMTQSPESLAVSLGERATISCKLSQSVLYEERNKNNVAWYQQKAGQPPKLLIYEASTRESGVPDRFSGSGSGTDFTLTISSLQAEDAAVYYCQQYHRLPLSFGGGTKVEIK | -0.27 | 6 of 6
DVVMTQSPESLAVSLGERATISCKLYQSMLYESRNKNSVAWYQQKAGQPPKLLIYNASQRESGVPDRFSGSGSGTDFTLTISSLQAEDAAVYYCQQYHRLPLSFGGGTKVEIK | -0.23 | 6 of 6
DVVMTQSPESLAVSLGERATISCKLHQSVGYESRNKNNVAWYQQKAGQPPKLLIYGGSQRESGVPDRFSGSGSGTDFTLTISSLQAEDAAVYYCQQYHRLPLSFGGGTKVEIK | -0.20 | 6 of 6
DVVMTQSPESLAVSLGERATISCKAQQSQLYESRNQNSVAWYQQKAGQPPKLLIYSASQRLSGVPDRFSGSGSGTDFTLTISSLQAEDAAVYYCQQYHRLPLSFGGGTKVEIK | -0.11 | 6 of 6
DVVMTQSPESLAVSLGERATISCKLSQSFLYEERNPNSVAWYQQKAGQPPKLLIYNASKRELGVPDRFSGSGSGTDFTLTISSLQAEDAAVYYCQQYHRLPLSFGGGTKVEIK | -0.04 | 6 of 6
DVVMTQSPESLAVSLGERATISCKQSPSVLYESRNKNSVAWYQQKAGQPPKLLIYNGSTREVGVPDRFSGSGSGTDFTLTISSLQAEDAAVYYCQQYHRLPLSFGGGTKVEIK | 0.00 | 6 of 6
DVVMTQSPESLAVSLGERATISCKSSQSVDYQSRNKNSVAWYQQKAGQPPKLLIYDASTRESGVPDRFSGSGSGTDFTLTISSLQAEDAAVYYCQQYHRLPLSFGGGTKVEIK | 0.05 | 6 of 6
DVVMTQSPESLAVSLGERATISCHMMQYSEMQNIIQNNIAWYQQKAGQPPKLLIYDAMTRVTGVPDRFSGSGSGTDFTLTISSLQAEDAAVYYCQQYQHLPLSFGGGTKVEIK | 0.09 | 6 of 6
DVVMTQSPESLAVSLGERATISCTIGQSTLMESQNRNNVAWYQQKAGQPPKLLIYQMSTREKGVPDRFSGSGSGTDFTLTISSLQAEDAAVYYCQQYDRLPLSFGGGTKVEIK | 0.15 | 6 of 6
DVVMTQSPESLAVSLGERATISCKSGQGVDYESRNKNHVAWYQQKAGQPPKLLIYGASTRESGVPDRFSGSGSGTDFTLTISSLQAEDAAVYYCQQYHRLPLSFGGGTKVEIK | 0.17 | 6 of 6
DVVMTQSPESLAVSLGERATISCKVSQKNLYESRMKNSVAWYQQKAGQPPKLLIYNASQRESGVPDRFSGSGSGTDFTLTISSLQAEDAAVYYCQQYHRLPLSFGGGTKVEIK | 0.18 | 6 of 6

The remaining entries, values ahead:

mean log10 Kd (nM) | detected | VL
0.21 | 6 of 6 | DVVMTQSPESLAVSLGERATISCKLSQEVEYESRLKNSVAWYQQKAGQPPKLLIYNASTRLEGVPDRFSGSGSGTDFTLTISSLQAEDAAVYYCQQYHRLPLSFGGGTKVEIK
0.33 | 6 of 6 | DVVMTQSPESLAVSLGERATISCKVSQSYLYESGTKNSVAWYQQKAGQPPKLLIYNASSRESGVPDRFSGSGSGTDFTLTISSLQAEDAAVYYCQQYHRLPLSFGGGTKVEIK
0.52 | 6 of 6 | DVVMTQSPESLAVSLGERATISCKLSQSFLYEDRNWNNVAWYQQKAGQPPKLLIYAASKRESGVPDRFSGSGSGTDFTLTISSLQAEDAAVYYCQAYHRLPLSFGGGTKVEIK
0.90 | 6 of 6 | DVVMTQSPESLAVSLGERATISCKHSPSEEYESRLKNSVAWYQQKAGQPPKLLIYHASTRCSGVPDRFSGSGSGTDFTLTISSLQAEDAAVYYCQQYHRLPLSFGGGTKVEIK
1.10 | 6 of 6 | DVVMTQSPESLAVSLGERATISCQLYELSVELSGKTHSVAWYQQKAGQPPKLLIYDNSTRGDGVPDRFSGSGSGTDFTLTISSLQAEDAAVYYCQQYFRLPLEFGGGTKVEIK
1.29 | 6 of 6 | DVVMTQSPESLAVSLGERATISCIISQVDAYESRLKNSIAWYQQKAGQPPKLLIYDQSTRGSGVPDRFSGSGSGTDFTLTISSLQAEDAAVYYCQQYDRLPLSFGGGTKVEIK
1.64 | 6 of 6 | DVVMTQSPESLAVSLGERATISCMISDMGLHDSRIQNSVAWYQQKAGQPPKLLIYNNSTREVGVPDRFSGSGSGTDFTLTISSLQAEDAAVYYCQQYDRLPLSFGGGTKVEIK
1.72 | 6 of 6 | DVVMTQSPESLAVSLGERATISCKSSQSELQESRNKNSVAWYQQKAGQPPKLLIYAASMRESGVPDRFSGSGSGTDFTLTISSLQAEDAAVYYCQQYHRLPLSFGGGTKVEIK
1.73 | 6 of 6 | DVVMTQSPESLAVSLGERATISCMISQLYNMGSFAINSVAWYQQKAGQPPKLLIYQASTRNEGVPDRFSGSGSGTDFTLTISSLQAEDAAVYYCQQYDRLPLIFGGGTKVEIK
1.98 | 6 of 6 | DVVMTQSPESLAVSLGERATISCKSSMSVMYESRNKNSVAWYQQKAGQPPKLLIYWASTRESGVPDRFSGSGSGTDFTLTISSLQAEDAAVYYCQQYHQLPLSFGGGTKVEIK
nd | 0 of 6 | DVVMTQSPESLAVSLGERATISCKLSMEPLVEWNRAQAIAWYQQKAGQPPKLLIYDAHMSYIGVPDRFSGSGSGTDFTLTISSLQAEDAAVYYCQQYFHLPLYFGGGTKVEIK
nd | 0 of 6 | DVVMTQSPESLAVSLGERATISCKSSQSLLYEWRNKNSVAWYQQKAGQPPKLLIYRASKRESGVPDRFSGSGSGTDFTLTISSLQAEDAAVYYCQQYHRLPLSFGGGTKVEIK

Excerpt, the final 2 entries:

VL	mean log10 Kd (nM)	detected
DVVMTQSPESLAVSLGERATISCKLSMEPLVEWNRAQAIAWYQQKAGQPPKLLIYDAHMSYIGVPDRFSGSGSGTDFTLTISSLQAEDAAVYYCQQYFHLPLYFGGGTKVEIK	nd	0 of 6
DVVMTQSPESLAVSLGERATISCKSSQSLLYEWRNKNSVAWYQQKAGQPPKLLIYRASKRESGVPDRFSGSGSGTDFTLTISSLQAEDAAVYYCQQYHRLPLSFGGGTKVEIK	nd	0 of 6